# Ab-14 light chain CDR variants: yeast mating affinities

Values reported by Li et al. 2023, doi:10.1038/s41467-023-39022-2 (FLAb copy).

Target peptide (SARS-CoV-2 spike, HR2 region): PDVDLGDISGINAS

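The parent was found by panning a naive human phage display library on the peptide. These sequences belong to a second round, designed from the earlier measurements on random variants of the parent. Their group label is 14L_GP_HC (GP: Gaussian process model; HC: hill climbing; a sequence that several methods proposed may carry one label only). Affinity was read by AlphaSeq, a pooled yeast mating assay with surface-displayed partners. Pairs that bind mate more often; barcode pairs of the diploids are counted by sequencing. Each replicate has its own calibration line, from reference interactions of the BCL2 family. Mating was done six times.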

Parent scFv Ab-14: VH joined to VL by the linker GGGGSGGGGSGGGGS. Changes lie in the light chain CDRs alone.
VH: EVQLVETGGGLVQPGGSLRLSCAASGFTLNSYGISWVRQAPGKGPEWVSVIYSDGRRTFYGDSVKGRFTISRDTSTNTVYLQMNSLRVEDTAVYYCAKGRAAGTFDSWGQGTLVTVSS
VL: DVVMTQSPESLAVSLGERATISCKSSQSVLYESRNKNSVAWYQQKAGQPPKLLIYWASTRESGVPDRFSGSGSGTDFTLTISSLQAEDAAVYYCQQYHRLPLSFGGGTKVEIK

Variants are written as CDR1, CDR2 and CDR3 of the light chain (limits as in the source). Parent: KSSQSVLYESRNKNSVA, WASTRES, QQYHRLPLS.
Affinities are written as log10 Kd with Kd in nM; a lower number is a better binder.
Where no diploid with the target was found in that replicate, the entry reads "n.d.": below detection, most likely a poor binder, though not proof of it.
Values of this round are not directly comparable with the first-round values of the same sequences.
The parent sequence was in this pool as ten entries: three were never detected, three once, and four in most replicates, with averages from 0.34 to 2.37.
Nonspecific signal, from three strains lacking the peptide, appeared in 4% of pairings of all light chain designs, centred on 2.64 (5% of these signals below 1.59); values are not corrected for it. For each scFv, signals with the empty controls are counted beside the result, with their mean in brackets.
The authors averaged sequences with at least three values out of six and counted those with two or fewer as poor binders.

CDR-L1,CDR-L2,CDR-L3,"replicates, log10 nM",empty controls
KSEQGVLYESRNKNHVA,GASTRES,QQYHRLPLS,0.83 / 0.80 / 0.66 / 0.40 / 0.50 / 0.71,0/18
KSSQSYYYESRNKNSVA,GASTRES,QQYHRLPLS,0.70 / 0.22 / 0.13 / 0.22 / 0.65 / 0.48,0/18
KLRQSTLYESRNKNSVA,EASTRES,QQYHRLPLS,0.19 / 0.02 / -0.05 / -0.31 / -0.06 / 0.18,0/18
HWSPSVAYESRNKNSVA,NASTRES,QQYHRLPLS,-0.18 / -0.21 / -0.32 / -0.54 / -0.48 / -0.25,0/18
RQSQSVLYESRNKNSVA,EASTRES,QQYHRLPLS,0.29 / -0.07 / -0.19 / -0.34 / -0.29 / -0.14,0/18
KSSQSWLYESRNKNSVA,GASCRES,QQYHRLPLS,-0.14 / -0.24 / -0.17 / -0.26 / -0.32 / -0.13,1/18 (2.31)
KSSQSELPESRNKNSVA,DASTRES,QQYWRLPLS,-0.15 / -0.08 / -0.12 / -0.37 / 0.13 / 0.13,1/18 (2.06)
KSLQSQEYESRNKNSVA,HASTRLD,QQYHRLPLS,-0.11 / 0.04 / 0.01 / -0.24 / 0.09 / -0.12,1/18 (4.51)
KSSQSVHYESRNKNSVA,GASTRES,QQYHRLPLS,0.89 / 0.41 / -0.14 / 0.21 / 0.25 / 0.47,0/18
KFSQSVLTESRNKNSVA,DASFRES,QQYHRLPLS,0.23 / -0.40 / -0.14 / -0.22 / 0.48 / -0.17,1/18 (1.92)
KSSISHLGESRNKNSVA,EASTRES,QQYHRLPLS,1.61 / 0.95 / 0.86 / 1.09 / 1.63 / 1.17,0/18
KLQQSTLYESRNQNSVA,WASTRES,QQYHRLPLS,0.55 / 0.76 / 0.73 / 0.89 / 0.71 / 1.05,1/18 (2.63)
HSSPSHLYESRNKNSVA,NASTRES,QQYHRLPLS,0.02 / 0.23 / 0.11 / -0.15 / -0.16 / 0.05,2/18 (2.53)
KQSFSVLQESMNKNSVA,DASTRES,QQYHRLPLS,0.73 / 0.71 / 0.55 / 0.62 / 0.78 / 0.79,3/18 (3.14)
KISQSVLGEQRNKNSVA,DASTRES,QQYHRLPLS,0.18 / 0.11 / -0.38 / -0.32 / -0.34 / -0.17,1/18 (2.74)
KSSQSWLYESRNKNAVA,GASFRES,QQYHRLPLS,-0.35 / -0.46 / -0.38 / -0.11 / -0.28 / -0.34,0/18
HSSESVLYESRNKNSVA,DASTRES,QQYHRLPLS,0.44 / 0.35 / 0.04 / 0.03 / 0.35 / 0.14,1/18 (2.08)
KLGQGVLDESRNKNSVA,RASTRES,QQYHRLPLS,1.04 / 0.79 / 0.70 / 0.51 / 0.81 / 0.93,2/18 (2.54)
KFSQSVLYESTTQNSVA,NASTRES,QQYHRLPLS,n.d. / 0.87 / 2.18 / n.d. / n.d. / n.d.,0/18
KVSCSYLYESRNKNSVA,EASTRES,QQYHRLPLS,n.d. / 0.49 / 0.74 / 0.77 / 1.47 / n.d.,0/18
KVSISYLGESRNKNSVA,EASTREG,QQYHRLPLS,1.40 / -0.99 / 0.63 / -0.85 / n.d. / -0.37,0/18
KSSQSVLYESGNKNSVA,HASTRES,QQYHRLPLS,-0.12 / -0.19 / -0.06 / -0.29 / 1.05 / 0.16,0/18
KVYPSYLYESRNKNSVA,QASTRES,QQYHRLPLS,0.07 / -0.10 / 0.41 / 0.09 / 0.01 / 0.19,1/18 (3.02)
KWPQGVLYESRNKNSVA,GASVRES,QQYHRLPLS,0.38 / 0.15 / 0.09 / 0.03 / 0.16 / 0.57,0/18
KYPQGVLYESRNKNSVA,GASVRES,QQYHRLPLS,-0.27 / -0.50 / -0.60 / -0.55 / -0.55 / -0.57,2/18 (2.83)
KLRMSTEYESRNKNSVA,WASTRES,QQYHRLPLS,2.21 / 1.95 / 2.00 / 1.57 / 1.25 / 1.69,1/18 (2.93)
KSLTSWLYESRNKNSVA,HASTREQ,QQYHRLPLS,1.22 / 0.87 / 1.06 / 1.30 / 0.85 / 0.93,0/18
KLLQSVLYESRNKNNVA,HASTRED,QQYARLPLS,-0.05 / -0.04 / -0.01 / -0.16 / -0.03 / -0.06,0/18
KSLQSWWYESRNKNSVA,HASTREQ,QQYHRLPLS,1.33 / 1.51 / 0.95 / 0.82 / 2.31 / 0.87,1/18 (2.33)
KLLQSVLYESRDKNSVA,HASTRED,QQYHRLPLS,0.38 / 0.27 / 0.28 / 0.15 / 0.16 / 0.38,0/18
KLRQQTLYETRNKNSVA,DASTREE,QQYHRLPLS,-0.17 / -0.33 / -0.33 / -0.15 / -0.36 / -0.30,1/18 (4.11)
KVLQSVLYESRNKNSVA,HASTRED,QQYGRLPLS,0.45 / 0.48 / 0.22 / 0.23 / 0.25 / 0.50,1/18 (3.29)
ASSQGWLYEGRNKNSVA,GASTRED,QQYHRLPLS,1.13 / 0.95 / 0.58 / 0.53 / 0.99 / 1.04,0/18
IAEQSWLYESRNKNSVA,GASTRES,QQYHRLPLI,0.79 / 0.46 / 0.66 / 0.45 / 0.49 / 0.69,0/18
KASQGVLYESRNKNSVA,GASTRES,QQYHRLPLS,0.44 / -0.04 / 0.08 / -0.03 / -0.10 / 0.22,3/18 (2.75)
KSSQSQLYESRNFNSVA,NASTRED,QQYHRLPLS,0.02 / 0.21 / -0.07 / 0.07 / 0.02 / 0.00,0/18
KQSQSVLYESRNKNAVA,DASTRES,QTYHWLPLS,1.10 / 0.56 / 0.96 / 0.69 / 1.01 / 1.00,1/18 (3.51)
FSLGSELYESRNFNSVA,HASTRED,QQYHRLPLS,0.87 / 0.93 / 0.72 / 0.79 / 0.83 / 0.93,1/18 (2.22)
FLMQSVLYESRNKNSVA,HASLRED,QQYHRLPLS,1.50 / 0.90 / 0.28 / 0.64 / 1.03 / 1.10,0/18
KFSQSVLYEPRTKNSVA,NASTRES,QQYHQLPLS,0.24 / 0.64 / 0.44 / 0.82 / 0.53 / 0.66,0/18
KSGQGVLYESRNKNHVA,GASTRES,QQYHRLPLS,0.54 / 0.73 / 0.58 / 0.17 / 0.80 / 0.17,0/18
KSSISDLYESRNTNSVA,EASTRES,QQYHRLPLS,0.04 / -0.40 / -0.78 / -0.59 / 0.15 / -0.54,0/18
KFLPSWLYESRNKNSVA,HASTREQ,QQYHRLPLS,0.02 / 0.18 / 0.05 / -0.04 / 0.07 / 0.12,2/18 (2.90)
KSSDSVKFESRNKNSVA,DASTRES,QQYHRLPLS,0.41 / 0.34 / 0.01 / 0.15 / 0.29 / 0.62,0/18
SLMQSVLYESRNKNSVA,HASTRED,QQYHRLPLS,0.17 / -0.08 / -0.11 / -0.04 / -0.24 / 0.04,1/18 (2.06)
KSGCGVDYESRNKNSVA,GASTRES,QQYHRLPLS,0.19 / 0.08 / 0.24 / 0.08 / 0.01 / 0.04,0/18
KSEQSVLYESRNFNSVA,HASTRED,QQYHRLPLS,1.05 / 0.70 / 0.76 / 0.71 / 0.51 / 0.82,0/18
KSSISYLYESRNTNSVA,EASTRES,QQYHRLPLS,0.54 / 0.12 / -0.09 / -0.03 / -0.20 / 0.20,3/18 (3.16)
KFSISYLYESRNKNSVA,AASTRES,QQYHRLPLS,0.82 / 0.54 / 0.40 / 0.16 / 0.52 / 0.30,0/18
KQSQSVLYESRNMNSVA,MGSTRES,QQYHRLPLS,0.54 / 0.48 / 0.38 / 0.24 / 0.52 / 0.59,5/18 (2.81)
KSQQGVLYESRNKNSVA,GASTRES,QQYHRLPLH,0.46 / 0.73 / 0.48 / 0.42 / 0.32 / 0.32,0/18

Top 9 of the variants detected in all replicates, tightest first:

CDR-L1,CDR-L2,CDR-L3,"replicates, log10 nM",empty controls
KYPQGVLYESRNKNSVA,GASVRES,QQYHRLPLS,-0.27 / -0.50 / -0.60 / -0.55 / -0.55 / -0.57,2/18 (2.83)
KSSISDLYESRNTNSVA,EASTRES,QQYHRLPLS,0.04 / -0.40 / -0.78 / -0.59 / 0.15 / -0.54,0/18
HWSPSVAYESRNKNSVA,NASTRES,QQYHRLPLS,-0.18 / -0.21 / -0.32 / -0.54 / -0.48 / -0.25,0/18
KSSQSWLYESRNKNAVA,GASFRES,QQYHRLPLS,-0.35 / -0.46 / -0.38 / -0.11 / -0.28 / -0.34,0/18
KLRQQTLYETRNKNSVA,DASTREE,QQYHRLPLS,-0.17 / -0.33 / -0.33 / -0.15 / -0.36 / -0.30,1/18 (4.11)
KSSQSWLYESRNKNSVA,GASCRES,QQYHRLPLS,-0.14 / -0.24 / -0.17 / -0.26 / -0.32 / -0.13,1/18 (2.31)
KISQSVLGEQRNKNSVA,DASTRES,QQYHRLPLS,0.18 / 0.11 / -0.38 / -0.32 / -0.34 / -0.17,1/18 (2.74)
RQSQSVLYESRNKNSVA,EASTRES,QQYHRLPLS,0.29 / -0.07 / -0.19 / -0.34 / -0.29 / -0.14,0/18
KSSQSELPESRNKNSVA,DASTRES,QQYWRLPLS,-0.15 / -0.08 / -0.12 / -0.37 / 0.13 / 0.13,1/18 (2.06)